# Antibody variant affinities, Ab-14 heavy chain, assay B

Data: MIT Lincoln Laboratory AlphaSeq set, Li et al. 2023, doi:10.1038/s41467-023-39022-2, as distributed in FLAb.

Binding partner: SARS-CoV-2 spike HR2 peptide, sequence PDVDLGDISGINAS.

The variants keep the light chain, the linker and the frameworks of Ab-14 (scFv order VH, a (GGGGS)3 linker, VL).
VH: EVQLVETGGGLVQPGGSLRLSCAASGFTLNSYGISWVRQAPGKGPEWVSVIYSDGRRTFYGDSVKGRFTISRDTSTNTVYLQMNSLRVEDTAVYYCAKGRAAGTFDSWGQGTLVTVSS
VL: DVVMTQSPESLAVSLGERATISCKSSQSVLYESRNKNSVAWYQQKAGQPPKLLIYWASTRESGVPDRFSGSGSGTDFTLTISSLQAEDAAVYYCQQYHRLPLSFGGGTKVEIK

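The parent was found by panning a naive human phage display library on the peptide. These sequences belong to a second round, designed from the earlier measurements on random variants of the parent. Their group label is 14H_En_HC (En: ensemble of fine-tuned language models; HC: hill climbing; a sequence that several methods proposed may carry one label only). The scFvs were displayed on barcoded MATa yeast, the peptide on MATalpha yeast. Binding brings cells together so that they mate, and sequencing counts the barcode pairs among the diploids. A regression on co-assayed BCL2-family reference pairs converts the normalised counts of each replicate to an apparent Kd. Mating was done six times.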

The parent's heavy chain CDRs are GFTLNSYGIS, VIYSDGRRTFYGDSVK, GRAAGTFDS; each variant's own CDRs replace them letter for letter.
The read-out is the apparent dissociation constant on a log10 scale (nM): the lower, the stronger.
Replicates are averaged; those with no signal do not enter the mean.
"n.d." marks a missing value. The strain was present, yet no cells mated with the target were sequenced in that replicate, which points to weak or no binding.

| CDR-H1 | CDR-H2 | CDR-H3 | replicates, log10 nM | mean, log10 nM | signal with controls |
|---|---|---|---|---|---|
| GFDLNEYGIS | VIYADGRRTFYADSVK | GEVAGTFDL | -0.78 -0.74 -1.04 -0.56 -0.98 -0.58 | -0.78 | 1/18 (0.97) |
| GFNLNEYGIS | VIYADGRRTFYADSVK | GQIAGTFNV | -0.31 -0.09 -0.39 -0.08 -0.22 0.03 | -0.18 | 0/18 |
| GFDLNEYGIS | VIYADGRRTFYSDSVK | GTEGGTFDM | 1.19 0.40 -0.16 0.07 0.68 0.06 | 0.37 | 0/18 |
| GFDLNEYGIS | VIYADGRRTFYADSVK | GQLAGTFVV | 0.32 0.29 0.78 0.45 0.47 0.44 | 0.46 | 1/18 (1.41) |
| GFDLEEYGIS | VIYADGMRTFYSDSVK | GENAGTFDV | 0.03 -0.39 -0.07 -0.16 -0.01 0.01 | -0.10 | 0/18 |
| GFDLNEYGIS | VIYADGRRTFYSDSVK | GENGGTFDV | 0.76 0.00 0.34 0.10 0.32 0.03 | 0.26 | 1/18 (3.75) |
| GFDIDEYGIS | VIYADGRRTFYADSVK | GTNAGTFDT | -0.23 -0.18 -0.43 -0.25 -0.44 -0.46 | -0.33 | 0/18 |
| GFDLNEYGIS | VIYADGRRTAYTDSVK | GTNAGTFDM | -0.72 -0.57 -0.53 -0.71 0.58 -0.48 | -0.40 | 0/18 |
| GFDLNEYGIS | VIYADGRRTFYVDSVK | GENAGIFNV | 0.77 n.d. n.d. 1.15 n.d. n.d. | 0.96 | 0/18 |
| GFDLNEYGIS | VIYADGRRTFYADSVK | GEAAGTFFQ | n.d. n.d. n.d. n.d. n.d. n.d. | n.d. | 2/18 (1.80) |
| GFDLNEYGIS | VIYADGRRTFYADSVK | GESAGTFDV | 0.06 -0.77 -0.18 -1.22 -0.59 0.27 | -0.40 | 0/18 |
| GFDLNEYGIS | VIYADGVRTQYIDSVK | GEAAGTFDL | n.d. n.d. n.d. n.d. n.d. n.d. | n.d. | 0/18 |
| GFNLNEYGIS | VIYADGRRTFYADSVK | GGYAGTFDV | 1.24 0.93 1.65 0.82 0.97 1.20 | 1.14 | 0/18 |
| GFDLNEYGIS | VIYADGRRTAYQDSVK | GEIAGTFDQ | -0.18 -0.34 -0.16 -0.74 -0.40 0.12 | -0.28 | 0/18 |
| GFDLNEYGIS | VIYADGRRTFYTDSVK | GEFAGTFDT | 0.24 -0.08 0.06 -0.22 -0.07 0.17 | 0.02 | 0/18 |
| GFDLNEYGIS | VIYADGRRTFYTDSVK | GGNAGTFVS | n.d. n.d. 1.38 2.74 2.24 0.74 | 1.77 | 0/18 |
| GFDLDEYGIS | VIYADGRRTFYADSVK | GELAGTFFM | 1.03 0.49 0.55 0.37 0.70 0.60 | 0.62 | 0/18 |
| GFDLNEYGIS | VIYADGRRTFYADSVK | GKTAGTFNV | 0.02 -0.45 -0.40 -0.42 -0.19 -0.01 | -0.24 | 2/18 (2.63) |
| GFSLDEYGIS | VIYADGQRTFYADDVK | GNVAGTFDV | 0.95 1.12 0.56 0.53 0.97 1.65 | 0.96 | 0/18 |
| GFNLDEYGIS | VIYADGQRTFYADSVK | GSHAGTFDL | -0.53 -1.03 0.00 -1.12 -0.69 -0.37 | -0.63 | 0/18 |
| GFSLDEYGIS | VIYADGRRTFYADSVK | GNSAGTFDL | -0.44 -0.55 -0.37 -0.67 -0.40 -0.43 | -0.48 | 1/18 (3.60) |
| GFDLNEYGIS | VIYADGRRTAYSDSVK | GEVGGTFDS | -0.56 0.51 -0.17 0.07 -0.64 -0.11 | -0.15 | 0/18 |
| GFDLNEYGIS | VIYADGMRTAYTDSVK | GNEAGTFDY | -0.42 -0.40 -0.28 -0.04 -0.32 -0.01 | -0.24 | 0/18 |
| GFSLDEYGIS | VIYADGRRTFYADSVK | GNVAGTFDA | -0.48 -0.91 -1.02 -0.89 -0.20 -0.24 | -0.62 | 1/18 (1.24) |
| GFDLNEYGIS | VIYADGRRTFYADSVK | GEAAGTFGL | -0.24 0.07 -0.66 0.06 -0.36 0.03 | -0.18 | 0/18 |
| GFDLNEYGIS | VIYADGRRTFYVDSVK | GEIAGTFDQ | -0.19 -0.25 -0.36 -0.48 -0.45 -0.46 | -0.36 | 1/18 (2.12) |
| GFDLNEYGIS | VIYADGRRTFYADSVK | GNQAGTFIF | n.d. n.d. 1.31 n.d. 1.01 n.d. | 1.16 | 0/18 |
| GFDLNEYGIS | VIYADGRRTFYSDSVK | GEHAGIFDV | 0.28 0.13 0.73 0.23 0.05 0.23 | 0.28 | 1/18 (1.94) |
| GFDLNEYGIS | VIYADGRRTFYTDSVK | GGNAGTFDS | 0.00 -0.29 -0.39 -1.11 -1.02 0.26 | -0.43 | 0/18 |
| GFDLNEYGIS | VIYADGSRTAYSDSVK | GNQAGTFDS | -0.07 -0.13 -0.71 -0.15 -0.26 -0.10 | -0.24 | 0/18 |
| GFDLNEYGIS | VIYADGMRTSYADSVK | GEAAGTFDV | -0.42 -0.22 -0.51 -0.63 -0.66 -0.70 | -0.52 | 0/18 |
| GFDLNEYGIS | VIYADGKRTSYIDSVK | GNVAGTFDT | 0.40 -0.10 0.25 0.28 -0.24 1.26 | 0.31 | 0/18 |
| GFDLNEYGIS | VIYADGKRTQYIDSVK | GEAAGTFDL | -0.50 -0.18 -0.45 -0.36 -0.53 0.00 | -0.34 | 1/18 (1.60) |
| GFDLNEYGIS | VIYADGMRTFYSDSVK | GQTAGTFDE | -0.09 0.37 0.10 -0.05 0.02 0.17 | 0.09 | 0/18 |
| GFDLNEYGIS | VIYADGRRTYYADSVK | GNQAGTFIL | 0.62 0.71 0.57 0.67 0.57 0.97 | 0.69 | 0/18 |
| GFDIDEYGIS | VIYADGRRTFYADSVK | GTNAGTFDI | 0.41 -0.11 -0.33 -0.29 -0.08 -0.14 | -0.09 | 0/18 |
| GFGLDEYGIS | VIYADGFRTFYADSVK | GENAGTFDM | -1.33 -1.13 -0.73 n.d. -1.72 -0.84 | -1.15 | 0/18 |
| GFDLNEYGIS | VIYADGKRTFYSDSVK | GQTAGTFDA | 0.71 0.11 -0.18 -0.77 0.22 -0.02 | 0.01 | 0/18 |
| GFDLNEYGIS | VIYADGSRTFYADSVK | GETAGSFDQ | -0.17 0.13 -0.08 -0.26 0.56 0.21 | 0.07 | 0/18 |
| GFNLNEYGIS | VIYADGRRTFYTDDVK | GEMAGTFDL | -0.30 -0.70 -0.66 -1.02 -0.75 -0.66 | -0.68 | 1/18 (0.63) |

A sequence measured in both rounds can read differently, since the two assays cover different ranges.
In the paper, a design with two or fewer of six values counts as a poor binder.
Background: pairings of all heavy chain designs with three empty control strains gave a value in 1% of cases (median 2.08, 5th percentile 0.84). Values in that range, when seen in few replicates, are hard to tell from nonspecific mating. Also given: how often the same scFv was detected with the empty control strains, with their mean in brackets.